Test results published in patent publication US20060079453A1, “Hla binding peptides and their uses” (priority 2002, published 2006).
Read-outs that look alike come from different tables or passages of the source.

The chains behind the UniProt entries cited, without tags or fusion partners. Residues count along the entry.
UniProt P79483, 30-266: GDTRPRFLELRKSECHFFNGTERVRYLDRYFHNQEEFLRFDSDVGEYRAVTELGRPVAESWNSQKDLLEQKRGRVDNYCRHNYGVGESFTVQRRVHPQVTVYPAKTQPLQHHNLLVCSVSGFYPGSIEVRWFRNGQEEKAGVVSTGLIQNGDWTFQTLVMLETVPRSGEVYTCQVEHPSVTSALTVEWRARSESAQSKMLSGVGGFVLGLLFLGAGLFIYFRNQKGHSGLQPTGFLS
UniProt Q30154, 30-266: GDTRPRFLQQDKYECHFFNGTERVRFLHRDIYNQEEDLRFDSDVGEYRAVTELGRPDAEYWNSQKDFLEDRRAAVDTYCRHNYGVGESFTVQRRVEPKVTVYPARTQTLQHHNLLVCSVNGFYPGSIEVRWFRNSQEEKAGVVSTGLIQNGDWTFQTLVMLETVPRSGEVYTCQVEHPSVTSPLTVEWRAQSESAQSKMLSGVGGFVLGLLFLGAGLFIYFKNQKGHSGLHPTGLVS

Columns and labels:
Assay in all cases: biochemical
Type in all cases: binding
[1] = target: HLA-A*0301 (Homo sapiens, UniProt P04439)
[2] = target: HLA-DR DRB1*1501 (DR15) (Homo sapiens, UniProt P01903+P01911)
[3] = target: HLA-DR DRB1*0701 (DR7) (Homo sapiens, UniProt P01903+P01911, A100R/A102G/A103Q/D57E/D86V/E43K/F76Y/K127E/L162R/M171V/P40G/Q125H/Q99D/R33Q/R42Y/R54Q/S133A/S66F/T210M/V115G/Y107V/Y59L/Y89S); conditions: DRB1 *0701
[4] = target: HLA-A*2301 (Homo sapiens, UniProt P04439, D101N/D140Y/D185E/E176V/E190D/F33S/G103R/G107R/H175R/I119L/I121M/I306V/K168Q/K335N/L105A/L300P/N151K/N90K/P307H/Q86E/Q94H/R106L/R138H/R89G/T104I/T345S/V100E/W191G/Y123F)
[5] = target: HLA-DR DRB3*0101 (DR52) (Homo sapiens, UniProt P01903+P79483)
[6] = target: HLA-DR DRB1*0901 (DR9) (Homo sapiens, UniProt P01903+P01911, A100R/A103E/D57H/D86V/F55Y/F60I/F76Y/I96F/K127E/L162R/M171V/P40D/Q125H/Q99R/R33Q/R42F/S133A/S66N/T210M/V115G/W38K/Y107V/Y59G/Y89S); conditions: DRB1 *0901
[7] = target: HLA-DR DRB1*0401 (DR4) (Homo sapiens, UniProt P01903+P01911, A100K/A169T/F76Y/I96L/K127E/L162R/M171V/N62H/P40V/Q125Y/R42H/S133A/S149N/S66Y/V115G/V209L/W38E); conditions: DRB1 *0401
[8] = target: HLA-DR DRB1*1302 (DR13) (Homo sapiens, UniProt P01903+P01911, A100E/A169T/K41T/L162R/M171V/P40S/Q125H/Q178H/Q39Y/Q99D/R42S/S66N/T262R/V115G/W38E/Y61H); conditions: DRBI *1302
[9] = target: HLA-DR DRB1*0301 (DR3) (Homo sapiens, UniProt P01903+P01911, A100K/A102G/A103R/A169T/F55Y/I96L/K41T/L162R/M171V/P40S/Q125H/Q178H/Q39Y/R42S/S66N/T106N/T262R/W38E/Y61H)
[10] = target: HLA-DR DRB4*0101 (DR53) (Homo sapiens, UniProt P01903+P13762, G164S); conditions: DRB4 *0101
[11] = target: HLA-DR DRB1*0802 (DR8) (Homo sapiens, UniProt P01903+P01911, A100R/A103L/A169T/F76Y/H45Y/I96F/K41T/L162R/M171V/P40S/Q125H/Q178H/Q39Y/Q99D/R218S/R42G/S66Y/V115G/W38E)
[12] = target: HLA-DR DRB1*0101 (DR1) (Homo sapiens, UniProt P01903+P01911, A100R/D57E/F55L/F60I/F76Y/I96L/L162R/M171V/P40L/Q125E/R42F/V115G/Y59C); conditions: DRB1 *0101
[13] = target: HLA-DR DRB1*1101 (DR11) (Homo sapiens, UniProt P01903+P01911, A100R/A169T/A87E/I96F/K41T/L162R/M171V/P40S/Q125H/Q178H/Q39Y/Q99D/R42S/S66Y/T262R/V115G/W38E); conditions: DRB1 *1101
[14] = target: HLA-DR DRB5*0101 (DR51) (Homo sapiens, UniProt P01903+Q30154); conditions: read-out: DRB5 *0101
[15] = read-out: A*0301 binding affinity (IC50)
[16] = read-out: A*0301 binding affinity (expressed as an IC50)

Compound: CC[C@H](C)[C@H](NC(=O)[C@@H](NC(=O)[C@H](CC(C)C)NC(=O)[C@H](CC(=O)O)NC(=O)[C@@H](NC(=O)[C@H](Cc1ccccc1)NC(=O)[C@H](C)NC(=O)[C@@H](N)Cc1ccccc1)[C@@H](C)O)[C@@H](C)O)C(=O)N[C@H](C(=O)N[C@@H](Cc1ccc(O)cc1)C(=O)O)C(C)C
- IC50 [1]: 40300 nM

Compound: CC(C)C[C@H](NC(=O)[C@H](C)NC(=O)[C@H](CCC(=O)O)NC(=O)CN)C(=O)N[C@@H](CO)C(=O)N[C@H](C(=O)N[C@@H](CC(C)C)C(=O)N[C@H](C(=O)N[C@@H](CC(C)C)C(=O)N[C@@H](CC(N)=O)C(=O)N[C@@H](CCCNC(=N)N)C(=O)N[C@@H](CC(C)C)C(=O)N[C@@H](CCCCN)C(=O)N[C@H](C(=O)NCC(=O)O)C(C)C)C(C)C)[C@@H](C)O
- IC50 ([2]; DRBI *1501): 269 nM

Compound: CC(C)C[C@H](NC(=O)CN)C(=O)N[C@@H](CCCNC(=N)N)C(=O)N[C@@H](CO)C(=O)N[C@@H](CC(C)C)C(=O)N[C@H](C(=O)N[C@H](C(=O)N[C@@H](CC(C)C)C(=O)N[C@@H](CC(C)C)C(=O)N[C@@H](CCCNC(=N)N)C(=O)N[C@@H](C)C(=O)N[C@@H](CC(C)C)C(=O)NCC(=O)N[C@@H](C)C(=O)N[C@@H](CCC(N)=O)C(=O)O)[C@@H](C)O)[C@@H](C)O
- IC50 [3]: 509 nM
- IC50 ([2]; DRBI *1501): 6.2 nM

Compound: CC(C)C[C@H](NC(=O)[C@@H]1CCCN1C(=O)[C@H](Cc1c[nH]cn1)NC(=O)[C@@H]1CCCN1C(=O)[C@H](Cc1ccccc1)NC(=O)[C@H](CO)NC(=O)[C@H](Cc1c[nH]cn1)NC(=O)[C@H](CO)NC(=O)[C@@H](NC(=O)[C@@H]1CCCN1C(=O)[C@@H](NC(=O)[C@H](CCCNC(=N)N)NC(=O)[C@H](CCC(N)=O)NC(=O)CN)C(C)C)C(C)C)C(=O)N[C@@H](Cc1ccc(O)cc1)C(=O)O
- IC50 ([2]; DRBI *1501): 3960 nM

Compound: C[C@@H](O)[C@H](NC(=O)CN)C(=O)N[C@@H](CCCNC(=N)N)C(=O)N[C@@H](CCC(N)=O)C(=O)N[C@H](C(=O)N[C@@H](CCCNC(=N)N)C(=O)N[C@@H](CCCCN)C(=O)N[C@@H](CC(N)=O)C(=O)N[C@@H](CCCCN)C(=O)O)[C@@H](C)O
- IC50 [1]: 198 nM

Compound: CC[C@H](C)[C@H](N)C(=O)N[C@@H](C)C(=O)N[C@@H](CC(C)C)C(=O)N[C@@H](CC(C)C)C(=O)N[C@H](C(=O)N[C@H](C(=O)N1CCC[C@H]1C(=O)N1CCC[C@H]1C(=O)N[C@@H](CCCCN)C(=O)O)[C@@H](C)CC)[C@@H](C)CC
- IC50 [1]: 1240 nM

Compound: CC[C@H](C)[C@H](N)C(=O)N[C@@H](Cc1ccc(O)cc1)C(=O)N[C@@H](CO)C(=O)N[C@H](C(=O)N[C@@H](CO)C(=O)N[C@@H](CCSC)C(=O)N[C@@H](CCCCN)C(=O)N[C@@H](Cc1c[nH]cn1)C(=O)N1CCC[C@H]1C(=O)N[C@@H](CCC(N)=O)C(=O)N[C@@H](CCC(=O)O)C(=O)N[C@@H](CCSC)C(=O)N[C@@H](CCCCN)C(=O)N[C@H](C(=O)N[C@@H](Cc1ccc(O)cc1)C(=O)O)[C@@H](C)O)[C@@H](C)CC
- IC50 ([2]; DRBI *1501): 5030 nM

Compound: CC(C)C[C@H](NC(=O)[C@@H](NC(=O)[C@@H](NC(=O)[C@@H](NC(=O)[C@@H](NC(=O)[C@H](C)NC(=O)[C@H](CCC(N)=O)NC(=O)[C@H](Cc1ccc(O)cc1)NC(=O)[C@@H](N)CCCCN)C(C)C)[C@@H](C)O)[C@@H](C)O)[C@@H](C)O)C(=O)O
- IC50 [4]: 16 nM

Compound: CC[C@H](C)[C@H](NC(=O)[C@H](Cc1ccc(O)cc1)NC(=O)[C@H](C)NC(=O)[C@H](CCC(=O)O)NC(=O)[C@H](CCC(=O)O)NC(=O)[C@H](Cc1ccccc1)NC(=O)[C@H](CCC(=O)O)NC(=O)[C@@H](N)CCC(N)=O)C(=O)N1CCC[C@H]1C(=O)N[C@@H](CCCCN)C(=O)N[C@@H](CCC(=O)O)C(=O)N[C@@H](CCC(N)=O)C(=O)N[C@@H](CCCCN)C(=O)N[C@@H](Cc1ccc(O)cc1)C(=O)N[C@@H](CO)C(=O)O
- IC50 [3]: 31300 nM
- IC50 [5]: > 54600 nM
- IC50 [6]: > 59500 nM
- IC50 [7]: > 21300 nM
- IC50 [8]: > 15800 nM
- IC50 [9]: > 172000 nM
- IC50 ([2]; DRBI *1501): > 15600 nM
- IC50 [10]: > 41100 nM
- IC50 [11]: > 33300 nM
- IC50 [12]: > 20500 nM

Compound: CC(C)[C@H](NC(=O)[C@H](CCC(=O)O)NC(=O)[C@H](Cc1ccccc1)NC(=O)[C@@H](N)CCCNC(=N)N)C(=O)N[C@@H](Cc1ccc(O)cc1)C(=O)N[C@@H](CCC(N)=O)C(=O)N[C@@H](Cc1ccccc1)C(=O)N[C@@H](C)C(=O)N[C@@H](Cc1ccccc1)C(=O)N[C@@H](CCCCN)C(=O)O
- IC50 [1]: 38 nM

Compound: CC[C@H](C)[C@H](NC(=O)[C@@H](N)CCCNC(=N)N)C(=O)N[C@@H](CO)C(=O)NCC(=O)N[C@H](C(=O)N[C@@H](CC(=O)O)C(=O)N[C@@H](CCCNC(=N)N)C(=O)N[C@@H](Cc1ccc(O)cc1)C(=O)N[C@@H](Cc1ccc(O)cc1)C(=O)O)C(C)C
- IC50 [4]: > 49000 nM

Compound: CC[C@H](C)[C@H](NC(=O)[C@H](CCC(N)=O)NC(=O)[C@@H](N)CCCNC(=N)N)C(=O)N[C@@H](Cc1ccc(O)cc1)C(=O)N[C@H](C(=O)N[C@@H](C)C(=O)N[C@@H](C)C(=O)N[C@@H](Cc1ccccc1)C(=O)N[C@H](C(=O)N[C@H](C(=O)N[C@@H](CCC(N)=O)C(=O)N[C@@H](C)C(=O)N[C@@H](C)C(=O)N[C@@H](C)C(=O)N[C@@H](CCC(=O)O)C(=O)O)C(C)C)[C@@H](C)O)C(C)C
- IC50 ([2]; DRBI *1501): 166 nM

Compound: CC[C@H](C)[C@H](NC(=O)[C@H](CC(=O)O)NC(=O)[C@@H](NC(=O)[C@H](Cc1c[nH]cn1)NC(=O)[C@@H](NC(=O)[C@H](CO)NC(=O)[C@H](CCC(N)=O)NC(=O)[C@@H](NC(=O)[C@H](CS)NC(=O)[C@H](CC(C)C)NC(=O)[C@H](CCCNC(=N)N)NC(=O)[C@H](CC(C)C)NC(=O)[C@@H](N)[C@@H](C)O)C(C)C)[C@@H](C)O)C(C)C)C(=O)N[C@@H](CCCNC(=N)N)C(=O)N[C@H](C(=O)O)[C@@H](C)O
- IC50 ([2]; DRBI *1501): 3960 nM

Compound: CC[C@H](C)[C@H](NC(=O)[C@@H](NC(=O)[C@H](CCCCN)NC(=O)[C@@H](N)Cc1ccc(O)cc1)[C@@H](C)O)C(=O)N[C@@H](C)C(=O)N[C@@H](Cc1ccc(O)cc1)C(=O)N[C@@H](CC(=O)O)C(=O)N[C@@H](CCC(=O)O)C(=O)N[C@@H](CCC(=O)O)C(=O)N[C@@H](C)C(=O)N[C@@H](CCCNC(=N)N)C(=O)N[C@@H](CCCNC(=N)N)C(=O)O
- IC50 ([2]; DRBI *1501): > 91000 nM
- IC50 [12]: ≥ 50000 nM
- IC50 [13]: ≥ 200000 nM

Compound: CC(C)C[C@H](NC(=O)[C@H](C)NC(=O)[C@H](CCC(=O)O)NC(=O)[C@@H](NC(=O)[C@H](CC(C)C)NC(=O)[C@H](CC(=O)O)NC(=O)[C@H](CO)NC(=O)CNC(=O)[C@H](CS)NC(=O)[C@H](CC(C)C)NC(=O)[C@H](Cc1c[nH]cn1)NC(=O)[C@H](CCC(N)=O)NC(=O)[C@H](CC(N)=O)NC(=O)[C@@H](NC(=O)[C@@H](N)Cc1ccccc1)C(C)C)C(C)C)C(=O)O [FVNQHLCGSDLVEAL]
- IC50 ([2]; DRBI *1501): 9680 nM

Compound: ATAGDGXXEXRK
- IC50 [1, 15]: 184 nM

Compound: ATGDKCLKFY
- IC50 [1, 16]: 194 nM

Compound: AVCRVGLLFY
- IC50 [1, 16]: 77 nM

Compound: DRTLMSAMTNLAALF
- IC50 ([2]; read-out: DRBI *1501): 871 nM

Compound: KKPLNEILIRCHCQ
- IC50 [14]: 26300 nM
- IC50 ([2]; read-out: DRBI *1501): 1870 nM

Compound: LLIRGLRCQY
- IC50 [1, 16]: 727 nM

Compound: MSCGRSSRTK
- IC50 [1, 16]: 352 nM

Compound: NIVTFGCQGR
- IC50 [1, 15]: 1510 nM

Compound: VAQVRGGNIVFELANS
- IC50 ([2]; read-out: DRBI *1501): 117 nM

Compound: WTTCQSIAFPSKTSASIGSL
- IC50 ([2]; read-out: DRBI *1501): 277 nM
